The target in assay [1] is T1, human cannabinoid type-1 receptors (hCB1) (Homo sapiens, UniProt P21554).
T1 construct: host or cells: CHO cells (CHO-hCB1), membranes or intact cells
Put plainly: [35S]GTPγS binding, CHO-hCB1 membranes. It counts as biochemical. The settings on record: 10 μM. On the procedure: In short, pellets were thawed on ice, combined in a 40 ml glass Dounce homogenizer and homogenized in 20 ml of cold buffer (50 mM HEPES at pH 7.4, 3 mM MgCl2, and 1 mM EGTA) using 10 strokes. Homogenates were then centrifuged at 40,000 × g for 10 min at 4°C. After discarding the supernatant, pellets were homogenized and centrifuged twice more. Final pellets were re-suspended in ice-cold 50 mM HEPES, pH 7.4, aliquoted and stored at -80°C for future use. Protein concentration was determined the same day, prior to freezing, using BCA^TM Protein Assay (Thermo Fisher Scientific, Waltham, MA, USA).
Non-specific binding was defined by radioactivity remaining in the presence of 10 μM of non-radioactive GTPγS. All reactions were incubated for 30 min at 30°C, terminated by filtration through Whatman GF/B glass fiber filters (Brandel, Inc.) and followed by four 4 ml washes of ice cold filtration buffer (50 mM HEPES, pH 7.4) containing 0.1% bovine serum albumin. […] Final counts were determined using liquid scintillation spectrophotometry (Tri Carb 2100 TR Liquid Scintillation Analyzer, Packard Instrument Company, Meriden, CT, USA) after overnight incubation. […]
CBRs are coupled to Gi/Go type G-proteins. […] G-protein activation was quantified using employing [^35S]GTPγS, a non-hydrolyzable analog of GTP, that irreversibly binds to the G-proteins when activated.
(In general: GTPγS resists hydrolysis and so accumulates on activated G proteins.)

By UniProt entry, the sequences of proteins in these tests, tags left out.
UniProt P21554, whole entry: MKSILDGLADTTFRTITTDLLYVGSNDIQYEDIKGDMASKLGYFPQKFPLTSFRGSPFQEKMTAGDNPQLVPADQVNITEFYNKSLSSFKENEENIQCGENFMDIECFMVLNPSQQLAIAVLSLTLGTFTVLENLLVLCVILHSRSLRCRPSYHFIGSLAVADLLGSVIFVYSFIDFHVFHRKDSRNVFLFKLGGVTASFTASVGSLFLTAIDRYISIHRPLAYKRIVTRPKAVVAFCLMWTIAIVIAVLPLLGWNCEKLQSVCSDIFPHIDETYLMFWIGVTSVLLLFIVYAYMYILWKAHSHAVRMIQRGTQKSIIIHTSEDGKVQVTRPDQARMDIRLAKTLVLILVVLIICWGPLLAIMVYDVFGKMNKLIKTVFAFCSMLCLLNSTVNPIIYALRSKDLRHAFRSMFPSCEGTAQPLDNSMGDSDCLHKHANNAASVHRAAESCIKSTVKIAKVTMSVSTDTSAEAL

Assay [2] has as its target T1, human cannabinoid type-1 receptors (hCB1). The experiment in a line: Adenylyl cyclase assay (basal cAMP), intact CHO-hCB1 cells. It counts as cell-based. Particulars: concentrations as high as 10 μM, data not shown. The protocol: Adenylyl cyclase activity was measured using intact CHO-hCB1 or CHO-hCB2 cells, similar to that previously reported ([Rajasekaran et al., 2013]). Briefly, cells cultured between passages 4 and 15 were seeded into 24-well plates at a concentration of 6.5 million cells per plate and incubated overnight in a humidified incubator maintained at 37°C and 5% CO2. Growth media was removed the next day and replaced with media containing […] [^3H]adenine, 0.9g/L NaCl, and 0.5 mM isobutyl-methyl-xanthine (IBMX) for 2–3 h. Radioactive media was then removed and each well treated with 0.5 ml of varying concentrations of SERM compounds in a Krebs-Ringer-HEPES solution (10 mM HEPES, 110 mM NaCl, 25 mM Glucose, 55 mM Sucrose, 5 mM KCl, 1 mM MgCl2, 1.8 mM CaCl2, pH 7.4) containing 0.5 mM IBMX and 10 μM forskolin. Plates were then floated in a 37°C water bath for 15 min before reactions were terminated by addition of 50 μL of 2.2 N HCl to each well.

These results are taken from publication PMC5177629, “Selective Estrogen Receptor Modulators: Cannabinoid Receptor Inverse Agonists with Differential CB1 and CB2 Selectivity” (Frontiers in Pharmacology, 2016).

As for `Cc1c(C(=O)NN2CCCCC2)nn(-c2ccc(Cl)cc2Cl)c1-c1ccc(I)cc1` [AM-251], in assay [1], the “reduction of basal G-protein activity, hCB1Rs” value is “over 30%”. In addition, the “effect on basal cAMP levels, CHO-hCB1 cells” value in assay [2] was “do not alter basal cAMP levels”.
